Measured values as given in US12642862B2, “Anti-CD79B antibody-drug conjugate, and preparation method therefor and pharmaceutical use thereof” (TUOJIE BIOTECH (SHANGHAI) CO., LTD., priority 2020, dated 2026).
Values joined by “and” are separate entries in the source; they are usually repeats but may differ in a detail not shown here. Equal entries are not always repeated. Where two headings read alike, the source gives them in different places.

What was measured:
DoHH2 = type: cell-based, human; conditions: DoHH2 (CD79B high-expression), 72 h, MTT
Raji = type: cell-based; conditions: Raji (CD79B negative-expression), 72 h, MTT
[1] = system: human diffuse large B-cell lymphoma WSU-DLCL2-induced nude mouse subcutaneous xenograft tumor; type: in vivo, nude mice (BALB/c-nu); conditions: IV; for Mean tumor volume (mm^3) D0: baseline at grouping; for % T/C D21 / % Tumor growth inhibition D21 / Mean tumor volume (mm^3) D21 / Partial regression: single dose D0; for Partial regression: tumors of 6
WSU-DLCL2 = type: cell-based, human; conditions: WSU-DLCL2 (CD79B low-expression), 72 h, MTT
[2] = system: DOHH-2 cells highly expressing human CD79B protein; type: cell-based; conditions: DoHH2 cells, 20 μg/mL ADC, 37° C.
Experimental: A cell endocytosis experiment was performed with DOHH-2 cells (DSMZ, ACC 47) highly expressing human CD79B protein to assess the endocytosis ability of ADCs.
The cells were collected by low temperature centrifugation at 4° C. for 5 min at 1000 rpm during the experiment. The cells were resuspended in 10-15 mL of FACS buffer pre-cooled on ice. The FACS buffer was composed of phosphate buffered saline (PBS), pH 7.4, with 2% fetal bovine serum (FBS). Throughout the experiment, FACS buffer was pre-cooled on ice. The cells were counted and centrifuged, and added to a 96-well plate at 300,000 cells/well. After centrifugation, the supernatant was discarded, and 12.5 μg/mL Fc blocking solution (BD, Cat No.: 564220) was added at 100 μL/well. Blocking was performed at room temperature for 10 min. Then, 20 μg/mL test ADC was added to the corresponding wells, and the plate was incubated at 4° C. for 1 h away from the light. The plate was washed twice with a pre-cooled PBS buffer to remove unbound ADCs. A complete cell culture medium (RPMI 1640 medium with 10% fetal bovine serum) was added, and the plate was incubated at 37° C. with 5% CO2 for 0 h and 4 h. After centrifugation, the supernatant was discarded, 2% PFA buffer solution was added at 100 μL/well to resuspend the cells, and the plate was left to stand for 10 min. Then, the plate was washed 3 times with an FACS buffer, and 100 μL of secondary antibody solution (fluorescent labeled goat anti-human secondary antibody: diluted in a 1:250 ratio, 2 μg/mL, Biolegend, Cat #409304) was added. The plate was incubated at 4° C. for half an hour away from the light. A pre-cooled PBS buffer was added, and the supernatant was discarded after centrifugation at 4° C., which were repeated three times. The cells were resuspended in an FACS buffer at 200 μL/well and detected using a flow cytometer (BD FACS Calibur).

B1: ADC-5: HAB015-10-cys-D, with a DAR value of about 2 (conjugate)
heavy: EVQLVQSGAEVKKPGSSVKVSCKASGSSFSSYGINWVKQAPGQGLEWIGEIFPRSGNTYYNEKFEGRATLTADKSTSTAYMELRSLRSEDTAVYYCAKGDLGDFDYWGQGTTVTVSSASTKGPSVFPLAPSSKSTSGGTAALGCLVKDYFPEPVTVSWNSGALTSGVHTFPAVLQSSGLYSLSSVVTVPSSSLGTQTYICNVNHKPSNTKVDKKV[letters of human IgG1 Fc not shown]
light: DFVMTQTPLSLPVTPGEPASISCRSSQSIVHSDGNTYFEWYLQKPGQSPKLLIYKVSNRFSGVPDRFSGSGSGTDFTLKISRVEAEDVGVYYCFQGSHVPWTFGGGTKVEIKRTVAAPSVFIFPPSDEQLKSGTASVVCLLNNFYPREAKVQWKVDNALQSGNSQESVTEQDSKDSTYSLSSTLTLSKADYEKHKVYACEVTHQGLSSPVTKSFNRGEC
IC50 (DoHH2): 0.0085 µg/mL
IC50 (Raji): >10 µg/mL
Mean tumor volume (mm^3) D0 ([1]; 3 mg/kg): 111.0 mm^3
% T/C D21 ([1]; 3 mg/kg): 31%
% Tumor growth inhibition D21 ([1]; 3 mg/kg): 69%
Mean tumor volume (mm^3) D21 ([1]; 3 mg/kg): 343.7 mm^3
Partial regression ([1]; 3 mg/kg): 0
Mean tumor volume (mm^3) D0 ([1]; 6 mg/kg): 110.8 mm^3
% T/C D21 ([1]; 6 mg/kg): 14%
% Tumor growth inhibition D21 ([1]; 6 mg/kg): 86%
Mean tumor volume (mm^3) D21 ([1]; 6 mg/kg): 218.5 mm^3
Partial regression ([1]; 6 mg/kg): 1/6 and 1
Mean tumor volume (mm^3) D0 ([1]; 12 mg/kg): 111.3 mm^3
% T/C D21 ([1]; 12 mg/kg): 12%
% Tumor growth inhibition D21 ([1]; 12 mg/kg): 88%
Mean tumor volume (mm^3) D21 ([1]; 12 mg/kg): 203.6 mm^3
Partial regression ([1]; 12 mg/kg): 1/6 and 1
IC50 (WSU-DLCL2): 0.0683 µg/mL
Endocytosis rate (4 h) [2]: 76%

B2: ADC-7 (conjugate)
heavy: B1 heavy
light: B1 light
IC50 (DoHH2): 0.002 µg/mL
IC50 (Raji): ~10 µg/mL
Mean tumor volume (mm^3) D0 ([1]; 1 mg/kg): 107.0 mm^3
% T/C D21 ([1]; 1 mg/kg): 9%
Mean tumor volume (mm^3) D21 ([1]; 1 mg/kg): 178.1 mm^3
Partial regression ([1]; 1 mg/kg): 1/6 and 1
IC50 (WSU-DLCL2): 0.0534 µg/mL
Endocytosis rate (4 h) [2]: 68%
